The target in one experiment is mICE (Mus musculus, UniProt P29452). Put plainly: Dissociation constant Ki and irreversible rate constant k3 for irreversible inhibitors, ICE. The conditions noted are these: continuous assay 60 min, reaction initiated by adding enzyme; for Ki: read-out: mICE Ki. The source says:
(§1) For the irreversible inhibition of a ICE/ced-3 Family Protease enzyme with a competitive irreversible inhibitor; using the model represented by the following formulas: […]
(§2) The product formation at time t may be expressed as:
(§3) [formula] where E, I, EI and E-I denote the active enzyme, inhibitor, non-covalent enzyme-inhibitor complex and covalent enzyme-inhibitor adduct, respectively. The Ki value is the overall dissociation constant of the reversible binding steps, and k3 is the irreversible rate constant. The [S] and Ks values are the substate concentration and dissociation constant of the substrate bound to the enzyme, respectively. [E]^T is the total enzyme concentration.
(§4) The above equations were used to determine the Ki and k3 values of a given inhibitor bound to a ICE/ced-3 family protease. Thus, a continuous assay was run for sixty minutes at various concentrations of the inhibitor and the substrate. The assay was formulated essentially the same as described above for generating the data in Table 1, except that the reaction was initiated by adding the enzyme to the substrate-inhibitor mixture. The Ki and k3 values were obtained by simulating the product AMC formation as a function of time according to Equation 1.
(§5) The reference compound for this assay was Cbz-ValAlaAsp-CH2F and the values are denoted in Table 2 as “Reference”. The Ki values in Table 2 are in micromolar (μM). The k3/Ki values are in moles^−1 seconds^−1 (M^−1s^−1).

By UniProt entry, the sequences of proteins in these tests, tags left out. Residues count along the entry.
UniProt P29452, 123-296 limits assumed: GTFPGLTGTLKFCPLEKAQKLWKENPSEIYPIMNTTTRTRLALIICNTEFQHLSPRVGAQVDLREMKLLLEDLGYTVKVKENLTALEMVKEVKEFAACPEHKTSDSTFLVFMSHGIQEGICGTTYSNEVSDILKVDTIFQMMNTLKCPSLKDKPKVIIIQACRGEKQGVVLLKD
UniProt P29452, 315-402 limits assumed: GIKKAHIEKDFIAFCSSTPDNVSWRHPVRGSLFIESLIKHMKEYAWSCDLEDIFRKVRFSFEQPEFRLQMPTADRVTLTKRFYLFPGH
UniProt P42574, 29-175 limits assumed: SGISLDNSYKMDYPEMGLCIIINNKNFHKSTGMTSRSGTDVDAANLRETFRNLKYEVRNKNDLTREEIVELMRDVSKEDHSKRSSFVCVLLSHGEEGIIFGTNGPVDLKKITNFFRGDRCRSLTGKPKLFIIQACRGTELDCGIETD
UniProt P42574, 176-277 limits assumed: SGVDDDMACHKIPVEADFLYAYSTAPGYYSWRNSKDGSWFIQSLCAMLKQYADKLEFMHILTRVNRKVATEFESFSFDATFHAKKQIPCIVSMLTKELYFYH
UniProt Q14790, 217-374 limits assumed: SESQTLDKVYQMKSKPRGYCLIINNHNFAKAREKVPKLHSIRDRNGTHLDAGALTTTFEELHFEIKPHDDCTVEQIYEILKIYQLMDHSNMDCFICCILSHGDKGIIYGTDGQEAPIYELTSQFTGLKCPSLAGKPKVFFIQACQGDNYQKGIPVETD
UniProt Q14790, 385-479 limits assumed: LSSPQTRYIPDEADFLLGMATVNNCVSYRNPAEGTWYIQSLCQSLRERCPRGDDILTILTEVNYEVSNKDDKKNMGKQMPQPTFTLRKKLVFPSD
UniProt P55212, 24-179 limits assumed: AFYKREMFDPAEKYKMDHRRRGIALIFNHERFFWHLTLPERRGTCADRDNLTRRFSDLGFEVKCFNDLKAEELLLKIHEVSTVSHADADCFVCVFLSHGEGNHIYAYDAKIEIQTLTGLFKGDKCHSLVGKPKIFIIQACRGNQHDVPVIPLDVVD
UniProt P55212, 194-293 limits assumed: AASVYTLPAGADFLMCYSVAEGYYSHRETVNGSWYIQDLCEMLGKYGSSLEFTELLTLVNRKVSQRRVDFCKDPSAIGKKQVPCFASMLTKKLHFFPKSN

Another experiment concerns the target CPP32 (Homo sapiens, UniProt P42574). Description: Dissociation constant Ki and irreversible rate constant k3 for irreversible inhibitors, CPP32. Particulars: continuous assay 60 min, reaction initiated by adding enzyme; for Ki: read-out: CPP32 Ki.
From the text: as §1, §2, §3, §4, §5

For another experiment, the target named is MCH-5 (Homo sapiens, UniProt Q14790). Put plainly: Dissociation constant Ki and irreversible rate constant k3 for irreversible inhibitors, Mch5. The conditions noted are these: continuous assay 60 min, reaction initiated by adding enzyme; for Ki: read-out: MCH-5 Ki.
For a further experiment, the target named is MCH-2 (Homo sapiens, UniProt P55212). Description: Dissociation constant Ki and irreversible rate constant k3 for irreversible inhibitors, Mch2. The conditions noted are these: continuous assay 60 min, reaction initiated by adding enzyme; for Ki: read-out: MCH-2 Ki.
From the text: as §1, §2, §3, §4, §5

As to `O=C(O)CC(NC(=O)[C@H](CC1CCCCC1)NC(=O)COc1ccccc1-c1ccccc1)C(=O)COc1c(F)c(F)cc(F)c1F` (stereo partly shown), on mICE, the “mICE k3/Ki” value was 4,000 M^−1s^−1 and the Ki stood at 2340 nM. In addition, on CPP32, the “CPP32 k3/Ki” value is reported as 10,900 M^−1s^−1 and the Ki came out at 1100 nM. For the same molecule, on MCH-5, the “MCH-5 k3/Ki” value is reported as 4,090 M^−1s^−1 and the Ki came to 377 nM. In addition, at MCH-2, the “MCH-2 k3/Ki” value was 20,600 M^−1s^−1 and the Ki turned out to be 149 nM.

In the case of `O=C(O)CC(NC(=O)[C@H](CC1CCCCC1)NC(=O)CCOc1cccc2ccccc12)C(=O)COc1c(F)c(F)cc(F)c1F` (stereo partly shown), at mICE, the “mICE k3/Ki” value is listed as 6,320 M^−1s^−1 and the Ki was 779 nM. Further, on CPP32, the “CPP32 k3/Ki” value is 8,210 M^−1s^−1 and the Ki worked out at 1150 nM. For the same molecule, at MCH-5, the “MCH-5 k3/Ki” value is recorded as 1,260 M^−1s^−1 and the Ki is 1190 nM. On MCH-2, the “MCH-2 k3/Ki” value is reported as 7,720 M^−1s^−1 and the Ki was 222 nM.

For the origin of these results see patent US7157430B2, “(Substituted)acyl dipeptidyl inhibitors of the ICE/CED-3 family of cysteine proteases” (Idun Pharmaceuticals, Inc., priority 1998, dated 2007).
